## Yeast mating assay 1: variants of the scFv Ab-14

Reference: Engelhart et al. 2022, doi:10.1038/s41597-022-01779-4. File: FLAb, binding data.

Binding partner: SARS-CoV-2 spike HR2 peptide, sequence PDVDLGDISGINAS.

Ab-14 is the parent antibody, in scFv form: VH, then three GGGGS repeats, then VL. The light chain is unchanged in all variants.
VH: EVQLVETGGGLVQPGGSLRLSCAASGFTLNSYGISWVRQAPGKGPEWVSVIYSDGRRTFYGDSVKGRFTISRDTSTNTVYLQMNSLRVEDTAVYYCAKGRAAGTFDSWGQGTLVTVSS
VL: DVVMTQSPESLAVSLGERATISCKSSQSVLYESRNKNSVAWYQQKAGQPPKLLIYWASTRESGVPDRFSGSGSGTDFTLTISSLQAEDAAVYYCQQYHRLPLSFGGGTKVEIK

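The starting antibody came from a phage panning campaign against this peptide. The library (AAYL49) carries one to three amino acid substitutions per variant, with no insertions or deletions. The assay is AlphaSeq: two haploid yeast populations carry antibody and antigen on their surface. The frequency of each diploid, read from paired DNA barcodes, reflects how well the two displayed proteins bind. The ratio of observed to expected reads was calibrated, replicate by replicate, on BCL2-family standards whose Kd was known from biolayer interferometry. Each pool was mated in three replicate cultures.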

Positions count from residue 1 of the parent VH; G33A puts A in place of G.
Values are apparent Kd, the geometric mean of the replicates that gave a signal; lower means stronger binding.
A pair that was not seen in any replicate is written "nd"; this usually means weak binding, but a binder can also be missed.
Empty control strains, which show no peptide, gave a signal in 15% of pairings with library AAYL49; the median was 11 µM and 95% of these signals were weaker than 680 nM. No background was subtracted. Also given: how often the same scFv was detected with the empty control strains.

apparent Kd	seen in	signal with controls	changes
1.1 µM	1/3	0/9	G33A+R56T+V64I
6.3 µM	3/3	1/9	G26H+Y60L+R100W
nd	0/3	1/9	L29H+Y52N+Y60A
4.4 µM	2/3	5/9	G61P+V64R+G99T
nd	0/3	0/9	S31M+I51L+Y52W
3.2 µM	2/3	1/9	N30R+G55Y+K65N
nd	0/3	0/9	I34N+G99I+S107H
4.9 µM	1/3	1/9	L29A+I34V+G61F
16 µM	1/3	3/9	G33L+A101H+G103M
nd	0/3	0/9	S31T+F59H+A101K
nd	0/3	0/9	S35E+I51H+Y60D
870 nM	1/3	1/9	F27M+Y52S+G55M
5.3 µM	1/3	1/9	Y52T+F105E
34 nM	1/3	0/9	G26R+F27D+R57H
nd	0/3	0/9	T28N+R100F+A102I
2.2 nM	3/3	4/9	T28S+R56C+F59A
15 µM	2/3	7/9	F27A+S31D+Y60I
760 µM	2/3	2/9	V50F+G55P+Y60P
4.5 nM	3/3	0/9	R56I+A101R
730 nM	1/3	1/9	D54E+A101I+T104W
nd	0/3	0/9	L29Y+D106G
200 µM	1/3	3/9	G33D+I34K+D106F
14 nM	3/3	0/9	V64E+G99L+F105E
nd	0/3	6/9	G55F+A102V+F105P
nd	0/3	1/9	R57T+D62W+G103I
nd	0/3	0/9	I51W+V64Y+R100D
410 µM	3/3	7/9	G55I+F105E+D106P
24 µM	2/3	5/9	S31H+I34T+V64C
690 µM	1/3	6/9	L29E+T58V+S63H
nd	0/3	3/9	Y32D+D54C+G55D
240 µM	1/3	1/9	I51Q+D62L+S63Y
54 µM	1/3	2/9	T58D+V64F+F105Q
nd	0/3	0/9	S35K+S53A+T58V
nd	0/3	0/9	G26C+R56Q
120 nM	3/3	2/9	S53Y+R100I
39 µM	2/3	4/9	V50I+S53D+R56V
nd	0/3	0/9	Y32F+F105W+S107F
nd	0/3	0/9	G26H+R56A+T58W
3.9 µM	3/3	1/9	F27I+D62T+F105W
nd	0/3	0/9	Y60P+V64D+D106W
5.3 µM	1/3	1/9	S53K+D54V+T104P
400 µM	1/3	1/9	N30S+S31M+G99P
94 nM	1/3	1/9	G33E+R57S+T104I
nd	0/3	2/9	G26F+A102G
nd	0/3	0/9	N30K+Y32F+D106I
nd	0/3	0/9	N30Y+G33R+S35F
nd	0/3	1/9	Y32V+I34G+S107E
nd	0/3	3/9	L29C+T58H+G103N
nd	0/3	0/9	D54P+A102M
nd	0/3	1/9	L29M+Y52Q+G61T

The first 4 variants above that were never detected:

changes	apparent Kd	seen in	signal with controls
L29H+Y52N+Y60A	nd	0/3	1/9
S31M+I51L+Y52W	nd	0/3	0/9
I34N+G99I+S107H	nd	0/3	0/9
S31T+F59H+A101K	nd	0/3	0/9

In this assay the parent's reference entry averaged 4.4 nM; its copy inside this library read 13 µM (one replicate of three).